Data on two compounds can be found in ChEMBL document CHEMBL1772975, “Novel potent and selective σ ligands: evaluation of their agonist and antagonist properties” (J Med Chem, 2011).

The species entered for the assay is Cavia porcellus. Nature of the assay: Selectivity ratio of Ki for sigma 1 receptor in guinea pig brain membranes to Ki for sigma 2 receptor in guinea pig brain membranes. Format: cell membranes.

The structures appear in SMILES notation.

For `COC(=O)[C@]1(c2ccccc2)C[C@@H]1CN1CCC(O)(c2ccc(Cl)cc2)CC1`, the Ratio Ki is 5.5.

`COC(=O)[C@@]1(c2ccccc2)C[C@H]1CN1CCC(O)(c2ccc(Cl)cc2)CC1`: the Ratio Ki was found to be 4.2.
